Source: patent US20080003630

Molecular target: T1, GST-poly (Glu, Tyr) fusion protein
T1 chain: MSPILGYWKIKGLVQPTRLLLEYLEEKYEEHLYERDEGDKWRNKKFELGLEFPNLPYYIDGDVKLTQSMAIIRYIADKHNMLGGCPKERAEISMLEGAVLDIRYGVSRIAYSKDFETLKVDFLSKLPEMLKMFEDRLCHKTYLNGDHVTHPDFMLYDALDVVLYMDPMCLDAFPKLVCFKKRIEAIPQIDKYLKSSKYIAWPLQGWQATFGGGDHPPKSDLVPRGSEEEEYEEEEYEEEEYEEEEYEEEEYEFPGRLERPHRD

B1: EGF Receptor 1 Kinase, intracellular domain (ICD) (protein)
chain: HIVRKRTLRRLLQERELVEPLTPSGEAPNQALLRILKETEFKKIKVLGSGAFGTVYKGLWIPEGEKVKIPVAIKELREATSPKANKEILDEAYVMASVDNPHVCRLLGICLTSTVQLITQLMPFGCLLDYVREHKDNIGSQYLLNWCVQIAKGMNYLEDRRLVHRDLAARNVLVKTPQHVKITDFGLAKLLGAEEKEYHAEGGKVPIKWMALESILHRIYTHQSDVWSYGVTVWELMTFGSKPYDGIPASEISSILEKGERLPQPPICTIDVYMIMVKCWMIDADSRPKFRELIIEFSKMARDPQRYLVIQGDERMHLPSPTDSNFYRALMDEEDMDDVVDADEYLIPQQGFFSSPSTSRTPLLSSLSATSNNSTVACIDRNGLQSCPIKEDSFLQRYSSDPTGALTEDSIDDTFLPVPEYINQSVPKRPAGSVQNPVYHNQPLNPAPSRDPHYQDPHSTAVGNPEYLNTVQPTCVNSTFDSPAHWAQKGSHQISLDNPDYQQDFFPKEAKPNGIFKGSTAENAEYLRVAPQSSEFIGA
phosphorylation of the plate-bound substrate, ELISA with HRP-labeled p-Tyr (PY20) antibody, absorbance (650 nm): In either case of HER1 and IGF1R, as the tyrosine kinase amount increased, a measured value was increased | phosphorylation of the substrate with ATP, Western blotting with Anti-Phosphotyrosine clone 4G10: In +of all of (i to vii) in FIG. 1, a single band was observed at a position where the phosphorylated GST-poly (Glu, Tyr) fusion protein appears
